Experimental data from patent US7902327B2, “Dendrimeric peptides, pharmaceutical compositions and methods of using the same” (New York University School of Medicine, priority 2007, dated 2011).

Test system: trypsin

## CC[C@H](C)[C@H](N)C(=O)N[C@@H](CC(C)C)C(=O)N1CCC[C@H]1C(=O)N[C@@H](Cc1c[nH]c2ccccc12)C(=O)N[C@@H](CCCCN)C(=O)N[C@@H](Cc1c[nH]c2ccccc12)C(=O)N1CCC[C@H]1C(=O)N[C@@H](Cc1c[nH]c2ccccc12)C(=O)N[C@@H](Cc1c[nH]c2ccccc12)C(=O)N1CCC[C@H]1C(=O)N[C@@H](Cc1c[nH]c2ccccc12)C(=O)N[C@@H](CCCN=C(N)N)C(=O)N[C@@H](CCCN=C(N)N)C(N)=O [Indolicidin, reference compound]
  antibacterial activity after trypsin treatment, of the untreated control: 25-30%
